# Measurements taken from US9447029B2, “Fluorinated arylalkylaminocarboxamide derivatives” (NEWRON PHARMACEUTICALS S.P.A., priority 2011, dated 2016).
# Protein sequences, listed by entry. Tags and fused reporters are not part of them.
# UniProt P10635, whole entry: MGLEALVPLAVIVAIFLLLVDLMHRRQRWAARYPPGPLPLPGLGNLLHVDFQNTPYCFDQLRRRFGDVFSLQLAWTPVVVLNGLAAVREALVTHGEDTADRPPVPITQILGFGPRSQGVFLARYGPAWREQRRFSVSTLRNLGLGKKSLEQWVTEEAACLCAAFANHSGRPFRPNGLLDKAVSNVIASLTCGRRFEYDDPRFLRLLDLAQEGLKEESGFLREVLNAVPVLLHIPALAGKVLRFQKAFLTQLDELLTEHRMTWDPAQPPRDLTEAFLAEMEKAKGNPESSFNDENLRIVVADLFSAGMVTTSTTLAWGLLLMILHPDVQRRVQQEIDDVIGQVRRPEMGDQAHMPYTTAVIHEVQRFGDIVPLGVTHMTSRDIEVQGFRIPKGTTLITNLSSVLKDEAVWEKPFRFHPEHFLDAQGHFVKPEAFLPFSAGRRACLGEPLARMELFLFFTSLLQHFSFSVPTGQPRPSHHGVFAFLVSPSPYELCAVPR
# Counter-ions that a name gives are not always drawn.
# Target: CYP2D6 (Homo sapiens (Human), UniProt P10635)
# Test: Inhibition of Cytochrome P4502D6 (CYP2D6) using Supersomes
# Format: in vitro ADME
# Settings: AMMC substrate, read-out: IC50 (Fluorinated derivative)
# Description: The inhibition of Cytochrome P4502D6 (CYP2D6) is assessed by performing in vitro inhibition studies using Supersomes, microsomes derived from baculovirus infected insect cells; the baculoviruses are engineered to express one or more drug metabolizing enzyme cDNAs. Supersomes catalyze the same enzymatic reactions as human liver microsome enzymes, but they contain much higher enzyme activity than other microsome sources (Crespi C. L. and Penman B. W., Advances Pharmacology, 43, 171-188 (1997); Crespi C. L. and Miller V. P., Analytical Biochemistry, 248, 188-190 (1997)).
# Kits with Supersomes are Supplied by GENTEST (MA, USA).
# Test compound is dissolved in DMSO 500× the highest final concentration desired in the IC50 assay. 30 ml of deionized water is pre-warmed to 37° C. and all kit components are placed on ice. For each well of column 1, 149.4 μL of NADPH-Cofactor Mix, (187.5 μl of Cofactors, 150 μl of G6PDH, 100 μl of Control Protein and 14.56 ml of 37° C. water) are added.
# In each well from Column 2 to 12, 100 μl of Cofactor/DMSO mix (40 μL DMSO in 9.96 ml of NADPH-Cofactor Mix) are added. To each well of column 1, 0.6 μl of test compound or positive control are added. 50 μl from each well of column 1 are serially diluted to column 8. The extra 50 μl from column 8 are discarded. The plate is covered and pre-incubated at 37° C. for 10 minutes.
# Preparation of enzyme/substrate mix: 7.92 ml of pre-warmed deionized water, 75 μl of enzyme, 3 μl of 10 mM AMMC and 2 ml of pre-warmed buffer are mixed.
# After the pre-incubation time (10′), 100 μl of enzyme/substrate mix to each well from column 1 to 10 are added. The plate is incubated at 37° C. for 30 minutes. After this time, 75 μl of Stop Reagent to each well are added. For blank controls, 100 μl of enzyme/substrate mix are added to columns 11 and 12.
# Plates are read at the Victor plate reader (Perkin Elmer, MA—USA) at 390 nm excitation and 460 nm emission wavelengths.
row,Compound,IC50 [µM]
1,"CCCCOc1cccc(C(F)(F)CNCC(=O)N(CC)CC)c1 [Example 1-32, 2-[2,2-Difluoro-2-(3-butoxyphenyl)-ethylamino]-N,N-diethyl-acetamide, hydrochloride]",34
2,"CCCCOc1cccc(C(F)(F)CNCC(=O)N2CCCCC2)c1 [Example 1-29, 2-[2,2-Difluoro-2-(3-butoxyphenyl)-ethylamino]-1-(piperidin-1-yl)-ethanone, hydrochloride]",38.3
3,"CN(C)C(=O)CNCC(F)(F)c1cccc(OCc2ccccc2)c1 [Example 1-14, 2-[2,2-Difluoro-2-(3-benzyloxyphenyl)-ethylamino]-N,N-dimethyl-acetamide, hydrochloride]",> 40
